Experimental data published in publication PMC5556019, “Targeting Apolipoprotein E/Amyloid β Binding by Peptoid CPO_Aβ17-21 P Ameliorates Alzheimer’s Disease Related Pathology and Cognitive Decline” (Scientific Reports, 2017).

Test system: SK-N-SH human neuroblastoma cells
Experiment: Toxicity rescue: apoE4-enhanced cytotoxicity of oligomeric Aβ42
Conditions: Aβ42 10 µM, apoE4 1 µM pre-incubated 6 hrs with inhibitor (Aβ12-28 P 4 µM; CPO_Aβ17-21 P 1 or 4 µM), three days

CC(=O)N[C@@H](C(=O)N[C@H](Cc1c[nH]cn1)C(=O)N[C@H](Cc1c[nH]cn1)C(=O)N[C@H](CCC(N)=O)C(=O)N[C@H](CCCCN)C(=O)N[C@H](CC(C)C)C(=O)N1CCC[C@@H]1C(=O)N[C@H](Cc1ccccc1)C(=O)N[C@H](Cc1ccccc1)C(=O)N[C@H](C)C(=O)N[C@H](CCC(=O)O)C(=O)N[C@H](CC(=O)O)C(=O)N[C@@H](C(=O)NCC(=O)N[C@H](CO)C(=O)N[C@H](CC(N)=O)C(=O)N[C@H](CCCCN)C(N)=O)C(C)C)C(C)C
neutralization of apoE4-enhanced cytotoxicity of Aβ42: neutralized
